The record followed here is patent US8273342B2, “Anti-virus therapy for respiratory diseases” (University of Southampton, priority 2004, dated 2012).

Test [1] has as its system asthmatic bronchial epithelial cells. Nature of the test: Apoptosis by Annexin-V/7-AAD flow cytometry in asthmatic BECs. To be noted: IFN-β plus poly(I):poly(C), regimen not specified. In kind it is cell-based, human.
For test [2], the system named is RV-16. Nature of the test: RV-16 viral yield from asthmatic BECs, HeLa titration assay of supernatant. The format is cell-based, rhinovirus. The conditions noted are these: for viral yield, median log TCID50: supernatant after 48 h, RV-16 alone 3.56. The protocol: Cells were also treated alone or following infection with the major group RV-16. After infection cells were also treated with the caspase 3 inhibitor ZVD-fmk at 120 μM (Calbiochem, La Jolla, Calif., USA) and human IFNβ at 100IU (Sigma Chemical St Louis Mo., USA).
(§1) RV titration was performed by exposing confluent monolayers of HeLa cells in 96-well plates to serial 10-fold dilutions of viral stock and cultured for 5 days at 37° C. in 5% CO2. Cytopathic effect was assessed and the tissue culture infective dose of 50% (TCID50/ml) was then determined and the multiplicity of infection (MOI) derived (Papi and Johnston, J Biol Chem, 1999; 274: 9707-9720). As a negative control for all experiments RV-16 was inactivated by exposure to UV irradiation at 1200 μJ/cm^2 UV light for 30 minutes. Inactivation was confirmed by repeating viral titrations in HeLa cells.
The desired concentration of RV-16 was applied to cells that were gently shaken at 150 rpm at room temperature for 1 hour. The medium was then removed and the wells washed twice with 1 ml Hanks Balanced Salt Solution. […] As negative controls cells were treated with medium alone and UV inactivated RV-16.
Confirmation of infection of epithelial cells and quantification of viral production was assessed by HeLa titration assay (Papi and Johnston, J Biol Chem, 1999; 274: 9707-9720) and quantitative reverse transcription polymerase chain reaction (qPCR), as described below.

A further test has as its system IFN-β mRNA. Nature of the test: IFN-β mRNA induction in RV-16 infected BECs from a COPD patient, RT-qPCR. In kind it is cell-based, human. To be noted: RV-16 (2 moi), exogenous IFN-β, 8 hours. The procedure:
IFN-β mRNA was measured by reverse transcription quantitative PCR and normalised to IFN-β levels in untreated (SFM) controls.
Analysis of gene expression for IL-8, TNFα, ICAM-1, IFNβ and RV was carried out using RNA extracted from BECs using TRIzol reagent (Life Technologies, Paisley, UK); contaminating DNA was removed by deoxyribonuclease digestion on RNeasy Mini Kits (Qiagen, Crawley, West Sussex, UK) in accordance with manufacturer's instructions. Total RNA (1 μg) was reverse transcribed using random hexamers or oligo (dT)15 primers and avian myeloblastosis virus transcriptase from the Reverse Transcription System (Promega, Southampton, UK), following the manufacturer's protocol. […]
Housekeeping gene primers and probe for 18S ribosomal RNA was obtained from Eurogentech (Eurogentech, Southampton, UK). […] Quantitation and real-time detection of the PCR were followed on the on icycler sequence detection system, and after completion of the PCR, the thresholds for fluorescence emission baseline were set just above background levels on the FAM and VIC layers (˜15 to 20 cycles). Standard curves were calculated from the delta CT and were constructed for target genes and the 18S rRNA endogenous control, and the amount of target and endogenous control were calculated. […]

Test [3] concerns RV-16. Nature of the test: RV-16 replication in BECs from a COPD patient, HeLa cell titration assay. The conditions noted are these: RV-16 (2 moi), exogenous IFN-β (100IU/ml). The format is cell-based, rhinovirus. The procedure: Cells were infected with RV-16 (2 moi) in the absence or presence of exogeneous IFN-β (100IU/ml). Virion production was measured as TCID50/ml by HeLA cell titration assay.
as §1
Chronic obstructive pulmonary disease is another example of an inflammatory airways disease in which the common cold virus causes exacerbations (Seemungal T A, Harper-Owen R, Bhowmik A, Jeffries D J, Wedzicha J A. Detection of rhinovirus in induced sputum at exacerbation of chronic obstructive pulmonary disease. Eur Respir J. (2000) 16, 677-83)_with those affected frequently requiring_hospitalization (MacNee W. Acute exacerbations of COPD. Swiss Med. Wkly. (2003) May 3; 133 (17-18):247-57). […]

For test [4], the system named is BEAS2B cells. Nature of the test: Induction of type I and type III interferons in BEAS2B cells. In kind it is cell-based, human. From the text:
FIG. 19. […] There is thus positive feedback between type 1 and type III interferon sub-types.

For test [5], the system named is BEAS2B cells. Nature of the test: Induction of pro-inflammatory cytokines in BEAS2B cells. In kind it is cell-based, human. The source says:
FIG. 20. IFNλs induce pro-inflammatory cytokines by themselves in a dose responsive manner and markedly enhance induction of pro-inflammatory cytokines in response to rhinovirus 16 expression, again in a dose responsive manner. These properties are observed in BEAS2B cells and indicate that IFNλs augment responses likely to recruit other inflammatory cells to virus infected epithelium.

“Also recorded” adds a separate entry of the source.

Regarding “IFN-β: human IFNβ at 100IU (Sigma Chemical St Louis Mo., USA), exogenous type I interferon”, the “induction of apoptosis in response to synthetic poly(I):poly(C)” value in test [1] is recorded as “marked induction of apoptosis”. The “viral yield, median log TCID50” value in the test on RV-16 [2] (asthmatic BECs pre-treated with IFNβ (100IU) for 12 h) was 1.12 (0.28, 1.34); in the test with RV-16 [2] (asthmatic BECs treated with IFNβ (100IU) immediately following infection), 2.78 (2, 3.56). The “RV-16 infectious virion production” value in the test with RV-16 [2] (asthmatic BECs, IFN-β, regimen not specified) is given as “significant reduction”. Further, in the test on IFN-β mRNA, the “induction of IFN-β mRNA” value was “vigorous induction”. Besides, the “RV-16 replication, virion production as TCID50” value in the test on RV-16 [3] is “one hundred fold reduction; also recorded: reduced”. Moreover, the “induction of IFNλ-1, IFNλ2-3 and interferon β” value in the test with BEAS2B cells [4] was “induces itself as well as inducing both IFNλ-1 and IFNλ 2-3”. For the same substance, in the test on BEAS2B cells [5] (no virus), the “induction of pro-inflammatory cytokines by the interferon itself” value is given as “the same”. Besides, in the test with BEAS2B cells [5] (with rhinovirus 16), the “induction of pro-inflammatory cytokines in response to rhinovirus 16” value is “the same”.
